Shown are actives, neighbours in structure and some others; about 3.7% of the full set was active somewhere.
miR-21 reporter: miR-21 reporter, rising signal; HeLa miR-21 FLuc reporter, luciferase, 48 h; Potency, µM (highest dose often 38.3 µM); 340,000 tested, under 10 active; AID 2288; active = well fitted rising curve with a large enough effect; inconclusive = small, poorly fitted or top-dose-only effect; inactive = no such curve, though single readings can be large or run the other way;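 further: miR-21 action dims this reporter so a rising signal means less miR-21 action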
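Compounds were titrated across several concentrations (up to approximately 40 uM) and incubated 48 hours with HeLa miR-21-FLuc reporter cells (miR-21 target sequence downstream of FLuc, endogenous miR-21). Readout was firefly luciferase luminescence after lytic detection reagent.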
A549 viability: A549 cytotoxicity, counter-screen for Nrf2 inhibitors; A549 ARE-Fluc cells, CellTiter-Fluor viability, 18-24 h; Potency, µM (top dose mostly 46 µM), most hits filed as inhibitors; 0.16% of 390,000 active
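A549 ARE_Fluc cells in 5% FBS OPTI-MEM were exposed to compounds in concentration-response for 18-24 h at 37 deg C. Viability was read by CellTiter-Fluor fluorescence (Ex 405/Em 525) after 30 min, before the luciferase read.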
Nrf2 ARE act: activators of Nrf2 (ARE) signaling; AREc32 ARE-luciferase reporter (MCF7-derived line), luminescence, 24 h; Potency, µM (doses to about 46.1 µM), most hits filed as activators; 0.31% of 410,000 active; AID 624171; also: nearly all actives have a fitted effect of over 65% in size
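AREc32_Fluc, 1000 cells/well, OPTI-MEM + 5% FBS, o/n 37 deg C 5% CO2; 23 nL cpd by pin tool, 24 hr; Steady-Glo 30 min RT, luminescence.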
TCR act: T cell receptor activation | primary human leukocytes, anti-CD3, IL-2 HTRF, 48 h | Potency, µM (titrated, usually from 9.22 µM), actives largely listed as activators | 330,000 tested, under 10 active | AID 504894
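1) Mix primary human leukocytes, a-CD3 beads and compound. 2) Incubate 48 hr. 3) Add HTRF IL-2 reagents (a-IL-2-K, a-IL-2-d2).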
Nrf2 block: blocks Nrf2 signaling | A549 ARE-Fluc reporter, luciferase luminescence, 18-24 h | Potency, µM (series often up to 46 µM), hits mostly inhibitors | 2.1% of 360,000 active | AID 504444; also: nearly all actives have a fitted effect of over 60% in size
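Reporter: ARE-Fluc in A549. Exposure: 18-24 h, 37 °C, 5% CO2, 5% FBS OPTI-MEM. Readouts: fluorescent cytotoxicity (CellTiter-Fluor), then luminescent Nrf2 signal after BugLite.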
ClpP mod: qHTS Assay for Activators of ClpP. 1.9% of 340,000 active. ATP-dependent Clp protease proteolytic subunit (Bacillus subtilis (strain 168)), P80244. AID 651965, 2013. purified B. subtilis ClpP, FRET peptide cleavage, 20 min. Potency, µM (top dose mostly 57.5 µM); active = well fitted falling curve with a large enough effect; inconclusive = small, poorly fitted or top-dose-only effect; inactive = no such curve, though single readings can be large or run the other way; also: the source files actives as falling curves though it sought activators and does not explain the sign; nearly all actives have a fitted effect of over 65% in size
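Buffer: 100 mM Tris/HCl pH8, 100 mM KCl, 0.05% low protease BSA, 2.5% glycerol, 0.01% Tween-20. ClpP 10 microg/mL final; 20 min RT; delta FRET normalized to ADEP and DMSO controls.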
Each line names hits and unclear results; the compound was inactive in the other large screens. Unless noted, calls follow the shape of the dose curve; as a rule, active = well fitted curve in the direction sought with a large enough effect; inconclusive = small, poorly fitted or top-dose-only effect, or another doubt; inactive = no such curve, though single readings can be large; an effect the other way counts as inactive or inconclusive.

Cc1ccc(S(=O)(=O)c2cn(C)c3cc(N4CCCC4)c(F)cc3c2=O)c(C)c1	Nrf2 block inconclusive, ClpP mod 28µM (no result: TCR act)
CCn1cc(S(=O)(=O)c2ccc(C)cc2C)c(=O)c2cc(F)c(N3CCCC3)cc21	A549 viability inconclusive, Nrf2 block inconclusive, ClpP mod 32µM (no result: TCR act)
Cc1ccc(S(=O)(=O)c2cn(C)c3cc(N4CCCC(C)C4)c(F)cc3c2=O)c(C)c1 (centres undefined)	ClpP mod 20µM (no result: TCR act)
Cc1ccc(S(=O)(=O)c2cn(C)c3cc(N4CCN(C)CC4)c(F)cc3c2=O)c(C)c1	none
O=C1NC[C@@H](CCCCN2C[C@H](Cc3ccccc3)N(Cc3ccccc3)C(=O)C2=O)N(CCc2ccccc2)C1=O	none (no result: miR-21 reporter, A549 viability, TCR act, Nrf2 block)
Cn1c(/C(C#N)=C/c2ccc(C(F)(F)F)cc2)nc2ccccc21	Nrf2 ARE act inconclusive (no result: TCR act)
Cc1cccc(-c2nnc(-c3ccccc3)o2)c1	Nrf2 ARE act 11µM (no result: Nrf2 block)
Cc1ccc(/C=C/c2nnc(-c3cccc(C)c3)o2)cc1	ClpP mod 32µM
Cc1cccc(-c2nnc(SCCC(=O)O)o2)c1	miR-21 reporter inconclusive, Nrf2 block 1.5µM (no result: TCR act)
COc1ccc(OC)c(CNC(=O)c2ccc(Sc3ccc(Cl)cc3)c(NC(C)=O)c2)c1	none (no result: TCR act, Nrf2 block)
CCCCN(CCCC)CC(O)c1cc(Cl)cc2c1-c1ccc(Cl)cc1C2=Cc1ccc(Cl)cc1 (centres undefined)	none (no result: miR-21 reporter, A549 viability, Nrf2 ARE act, TCR act, Nrf2 block)
CC(C)[C@H](NC(=O)c1ccccc1F)C(=O)Nc1nc2c(s1)CCCC2	none (no result: ClpP mod)
COc1cc(OC)cc(C(=O)N[C@H](C(=O)Nc2nc3c(s2)CCCC3)C(C)C)c1	Nrf2 block 23µM
Cc1ccc(C(=O)n2cnnc2N)cc1	Nrf2 block 8.2µM
COc1ccc2nc(CC(C)(C)CC(=O)O)c[n+]([O-])c2c1	ClpP mod 16µM
COc1ccc(NC(=O)CCNS(=O)(=O)c2cc(Br)cnc2N)c(OC)c1	none
COc1ccc(S(=O)(=O)N2CCc3ccccc32)cc1C(=O)Nc1ccc(C(N)=O)cc1	Nrf2 block inconclusive (no result: miR-21 reporter)
CCOC(=O)c1nn(-c2ccccc2C)c2nc(-c3ccc(Cl)cc3)c(C#N)c(=O)n12	ClpP mod 32µM
CCOC(=O)c1nn(-c2ccccc2C)c2nc(-c3ccc(C)cc3)c(C#N)c(=O)n12	ClpP mod 35µM
CCOc1ccc(CNC(=O)CCC(=O)N2CC(C)Sc3ccccc32)cc1 (centres undefined)	none (no result: TCR act)
Cc1ccc(CN2CCN(C3CCN(C(=O)Nc4ccccc4C(F)(F)F)CC3)C(=O)C2=O)cc1	none (no result: TCR act, Nrf2 block)
COC(=O)c1sc2ccccc2c1-n1cccc1C(=O)C(=O)Nc1ccc(Cl)cc1	A549 viability inconclusive, ClpP mod 14µM (no result: Nrf2 block)
COC(=O)c1sc2ccccc2c1-n1cccc1C(=O)C(=O)Nc1ccc(C)cc1	A549 viability inconclusive (no result: Nrf2 block)
CCc1ccc(C(=O)NNC(=O)c2ccc(=O)n(C)n2)cc1	none
COc1ccc(-c2ncncc2-c2ccc(OC)c(OC)c2)c(O)c1	Nrf2 block inconclusive, ClpP mod 20µM
O=C(Cc1ccc([N+](=O)[O-])cc1)NCc1ccccc1Cl	ClpP mod 11µM
O=C(Cc1ccc([N+](=O)[O-])cc1)NCc1cccnc1	none
NC(=O)c1c(C(F)(F)F)cc(-c2ccccc2)nc1NCCO	ClpP mod 22µM
CCCCNc1nc(-c2ccccc2)cc(C(F)(F)F)c1C(N)=O	none
Cc1nc(NCC2CCCO2)nc2c1C(=O)CC(C)C2 (centres undefined)	none (no result: Nrf2 block)
Cc1nc(NCc2ccco2)nc2c1C(=O)CC(C)C2 (centres undefined)	Nrf2 ARE act 2µM (no result: Nrf2 block)
Cc1c(C)c2c(OCC(=O)NCc3ccccn3)cc3c(c2oc1=O)CCC(C)(C)O3	none
Cc1ccc(NC(=O)CS(=O)CC(=O)NC(C)CCc2ccco2)cc1Cl (centres undefined)	ClpP mod 28µM
Cc1cc(C)c(S(=O)(=O)Nc2ccc(-c3ccc(N4CCC(C)CC4)nn3)cc2)cc1C	A549 viability inconclusive (no result: TCR act, Nrf2 block)
Cn1nc([N+](=O)[O-])c(C(C#N)c2ccccn2)c(Cl)c1=O (centres undefined)	A549 viability inconclusive, Nrf2 ARE act inconclusive, Nrf2 block 12µM
COc1ccccc1C1CCN(C(=O)c2ccc(C(C)(C)C)cc2)CC1	Nrf2 block inconclusive
NC(=S)NN=C1C=CCCC1	none (no result: miR-21 reporter)
COc1ccc(CNC(=O)CN2C(=O)C(c3ccccc3)Oc3cccnc32)cc1 (centres undefined)	A549 viability inconclusive, Nrf2 block 23µM
O=C(CNC(=O)c1ccccc1)OC(CCc1ccccc1)C(=O)Nc1cc(C(F)(F)F)ccc1Cl (centres undefined)	none (no result: miR-21 reporter, Nrf2 ARE act, TCR act, ClpP mod)
Cc1ccc(Nc2cc(C)nn2-c2nc(C)cc(=O)[nH]2)cc1	miR-21 reporter inconclusive, A549 viability 13µM, Nrf2 ARE act inconclusive, Nrf2 block 1.8µM
CCN(CC)S(=O)(=O)c1cccc(-c2nnc(SCCCC(=O)c3ccc(F)cc3)o2)c1	Nrf2 block 23µM
COc1ccc(C(=O)Oc2coc(CSc3nnc(NC(=O)c4cccs4)s3)cc2=O)cc1	Nrf2 block inconclusive, ClpP mod 28µM
CCCC(=O)Nc1c(-c2ccccc2OC)c(=O)c2ccccc2n1C	none
CCCCC(=O)Nc1c(-c2ccc(OC)c(OC)c2)c(=O)c2ccccc2n1C	none
CCCCCC(=O)Nc1c(-c2ccc(OC)cc2)c(=O)c2ccccc2n1C	Nrf2 block inconclusive, ClpP mod 25µM
CCCC(=O)Nc1c(-c2ccc(OC)cc2)c(=O)c2ccccc2n1C	ClpP mod 16µM
Cc1ccc(C)c(S(=O)(=O)c2cnc(SCC(=O)Nc3ccc(F)cc3F)[nH]c2=O)c1	none (no result: TCR act)
O=C(O)Cc1sc(-c2ccccc2)nc1-c1ccccc1	Nrf2 block inconclusive, ClpP mod 32µM
O=C(O)Cc1sc(-c2ccc(Cl)cc2)nc1-c1ccccc1	none (no result: TCR act)
CCCC(=O)Nc1cc(-c2cn3cccnc3n2)ccc1OC	ClpP mod inconclusive (no result: Nrf2 block)
O=C(Nc1ccc(-c2cn3cccnc3n2)cc1)c1ccccc1F	none (no result: TCR act, Nrf2 block)
Cc1ccc(C(=O)Nc2ccc(-c3cn4cccnc4n3)cc2)cc1C	Nrf2 block 23µM (no result: TCR act)
O=C(Nc1cccc(-c2cn3cccnc3n2)c1)c1ccc2c(c1)OCO2	ClpP mod 28µM (no result: Nrf2 block)
CCOc1cc(C(=O)Nc2ccc(-c3cn4cccnc4n3)cc2)cc(OCC)c1OCC	Nrf2 block inconclusive, ClpP mod 16µM (no result: TCR act)
COc1ccc(-c2cn3cccnc3n2)cc1NC(=O)CC(C)C	ClpP mod 28µM
O=C(CC[C@H]1O[C@@H](n2cnc3c(NC(=O)c4ccccc4)ncnc32)[C@H](O)[C@@H]1O)NCc1nc2ccccc2[nH]1	none (no result: miR-21 reporter, A549 viability, TCR act, Nrf2 block)

High-throughput results from PubChem.
